This note sets out measurements from publication PMC12557383, “Development of a Potent and Functional In Vivo Peptide Competitive Inhibitor for the Toxin MazF” (Journal of Medicinal Chemistry, 2025).

The target in test [1] is T1, MazF_(E24A) (E. coli toxin MazF with glutamic acid 24 replaced with alanine, His6 tag removed) (E. coli, UniProt P0AE70 1-111, E24A).
T1 construct: For NMR the same construct was 15N or 15N/13C labelled; also called the toxin; source: E. coli BL21 (DE3) RIL, purified (Ni-NTA, TEV cleavage, second Ni-NTA, SEC); not shown: His6, N-terminal, cleaved
T1 sequence: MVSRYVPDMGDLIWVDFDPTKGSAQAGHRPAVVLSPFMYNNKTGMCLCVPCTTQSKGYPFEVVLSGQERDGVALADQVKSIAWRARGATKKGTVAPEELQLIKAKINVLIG
Nature of the test: ITC; MazE (50 μM) in the syringe, 20 injections of 8 μL into 10 μM MazF_(E24A) in the cell; 50 mM NaHPO4 pH 7, 100 mM NaCl, 0.5 mM EDTA, 4 mM DTT; one set of sites model. Particulars: both partners purified. On the technique in general: Isothermal titration calorimetry measures the heat released or taken up as one component is titrated into another.

For test [2], the target named is T2, His^6-MazF (wild-type E. coli toxin MazF) (E. coli, UniProt P0AE70 1-111).
T2 sequence: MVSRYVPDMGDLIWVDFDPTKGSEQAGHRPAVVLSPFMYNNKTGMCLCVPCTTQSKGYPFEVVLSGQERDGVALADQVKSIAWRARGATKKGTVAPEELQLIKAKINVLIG
Nature of the test: cell-based or functional assay.

B1: MazE (E. coli antitoxin) (natural protein, UniProt P0AE72 1-82, looked up)
chain: MIHSSVKRWGNSPAVRIPATLMQALNLNIDDEVKIDLVDGKLIIEPVRKEPVFTLAELVNDITPENLHENIDWGEPKDKEVW
notes: also called full-length MazE; the antitoxin
As usually defined, the Kd is the concentration at which binding is half-saturated. Lower therefore signals a tighter complex. On to B1, for which, in test [1], the Kd is 3.9 ± 0.7 nM. Besides, in test [2], the “IC50 of inhibition of His6-MazF (0.75 μM) cleavage of a fluorescence-suppressed DNA–RNA chimeric substrate (0.5 μM)” value came to 330 nM.
